System: sAPPβ release in SH-SY5Y cells
Assay: sAPPβ release assay
Format: cell-based
Conditions: Homo sapiens, 17 h, compounds incubated 17 h, MSD detection
Protocol: Thaw cells and seed at a conc. of around 10000 cells/well in DMEM/F-12 with Glutamax, 10% FCS and 1% non-essential amino acids to a 384-well tissue culture treated plate, 100 μL cell susp/well. […] The cell medium was removed, followed by addition of 30 μL compound diluted in DMEM/F-12 with Glutamax, 10% FCS, 1% non-essential amino acids and 1% PeSt to a final conc. of 1% DMSO. The compounds were incubated with the cells for 17 h (overnight) at 37° C., 5% CO2. Meso Scale Discovery (MSD) plates were used for the detection of sAPPβ release. MSD sAPPβ plates were blocked in 1% BSA in Tris wash buffer (40 μL/well) for 1 h on shake at r.t. and washed 1 time in Tris wash buffer (40 μL/well). 20 μL of medium was transferred to the pre-blocked and washed MSD sAPPβ microplates, and the cell plates were further used in an ATP assay to measure cytotoxicity. The MSD plates were incubated with shaking at r.t. for 2 h and the media discarded. 10 μL detection antibody was added (1 nM) per well followed by incubation with shaking at r.t. for 2 h and then discarded. 40 μL Read Buffer was added per well and the plates were read in a SECTOR Imager.

IC50: 0.1 nM
SMILES: CC#Cc1cncc(-c2ccc3c(c2)[C@@]2(N=C(C)C(N)=N2)[C@]2(CC[C@H](OC)CC2)C3)c1 (single isomer, unassigned) [Example 20a Isomer 1]

Source: patent US10231967B2, “Compounds and their use as BACE inhibitors” (ASTRAZENECA AB, priority 2010, dated 2019)
